This passage reports activation results from PubChem BioAssay AID504700 (The Scripps Research Institute Molecular Screening Center, 2011).

The chains behind the UniProt entries cited, without tags or fusion partners.
UniProt P31323, whole entry, looked up: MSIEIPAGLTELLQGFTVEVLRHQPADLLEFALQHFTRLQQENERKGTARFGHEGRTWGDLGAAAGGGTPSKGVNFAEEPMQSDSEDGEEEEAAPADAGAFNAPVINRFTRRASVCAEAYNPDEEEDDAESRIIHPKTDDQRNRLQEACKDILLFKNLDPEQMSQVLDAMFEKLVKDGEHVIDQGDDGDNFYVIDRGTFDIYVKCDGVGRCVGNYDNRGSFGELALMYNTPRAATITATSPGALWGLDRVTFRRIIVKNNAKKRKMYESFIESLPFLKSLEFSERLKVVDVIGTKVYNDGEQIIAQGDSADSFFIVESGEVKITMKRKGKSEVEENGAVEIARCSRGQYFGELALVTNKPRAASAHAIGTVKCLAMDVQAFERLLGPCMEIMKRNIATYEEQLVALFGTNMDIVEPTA

Only a part is listed here, and it is no random draw. Some of these compounds have results that are not shown, active ones among them. Activity calls are given as the source filed them.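 How the source made its calls: active means activation above a cutoff set at the mean over all compounds plus 3 SD (cut at about 18% in these data); inactive means the rest.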

The target of this experiment is cAMP-dependent protein kinase catalytic subunit beta (Homo sapiens) + cAMP-dependent protein kinase type II-beta regulatory subunit (Homo sapiens) (UniProt P22694+P31323). The experiment in a line: activators of PKA-R2B holoenzyme, primary screen, biochemical, fluorescence polarization, Cy5-IP20, human (AID 504700).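 Further: higher means more holoenzyme dissociation and a rise in polarization.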 Conditions: PKA-R2B holoenzyme dissociation, at 11.4 µM, active compounds read high, 0% DMSO only, 100% 113 µM cGMP, R2B truncated from residue 108, S112A mutant. (Polarisation of emitted light reports the rotation of a fluorescent probe.)
With `COc1cccc(C(=O)NCC2(N3CCCCC3)CCCCC2)c1`, the activation is inactive: 3.05%.
Consider `COc1ccc(Cl)cc1C(=O)NCC1(N(C)C)CCCCC1`, for which the activation was inactive: 0.04%.
Then `O=C(NCC1(N2CCCCC2)CCCCC1)c1cccc(Cl)c1`, with inactive: -7.66%; and `CN(C)C1(CNC(=O)c2ccc(Br)cc2)CCCCC1`, with inactive: 2.8%; and `COc1cc(C(=O)NCC2(N(C)C)CCCCC2)c([N+](=O)[O-])cc1OC`, with inactive: 6.18%.
For the molecule `C=C(C)C#CC(O)(C(=O)OC1CCN(C)CC1)c1ccccc1` (stereo unspecified), the activation is inactive: 5.21%.
Then `COc1ccc(Br)c(C(=O)NCC2(N3CCCCC3)CCCCC2)c1`, with inactive: -4.51%; and `CC(C)Oc1ccc(C(=O)NCC2(N(C)C)CCCCC2)cc1`, with inactive: 11.1%; and `O=C(OCCN1CCCC1)C(O)(c1ccccc1)c1ccccc1`, with inactive: 3.83%.
Turning to `CN(C)c1cccc(C(=O)NCC2(N(C)C)CCCCC2)c1`, the activation was inactive: -4.99%.
Turning to `O=C(OC1CN2CCC1CC2)C(CO)(c1ccccc1)c1ccccc1` (stereo unspecified), the activation was inactive: -0.32%.
With `CCN(CC)CC(C)C(C)OC(=O)C(O)(c1ccccc1)c1ccccc1` (stereo unspecified), the activation was inactive: -1.78%.
The result for `COc1cc(SC)ccc1C(=O)NCC1(N(C)C)CCCCC1` reads inactive: -8.96%; that for `CC(C)N1C(=O)CC2(CCN(CCOC(=O)C(O)(c3ccccc3)c3ccccc3)CC2)C1=O`, inactive: 0.69%; that for `Cc1ccc(C(=O)NCC2(N3CCCCC3)CCCCC2)cc1`, inactive: -2.74%.
The result for `O=C(NCC1(N2CCCCC2)CCCCC1)c1cc([N+](=O)[O-])ccc1Cl` reads inactive: 10.8%.
Take `CN1[C@@H]2CC[C@H]1CC(OC(=O)C(O)(c1ccccc1)c1ccccc1)C2` (stereo partly specified): the activation is inactive: -5.62%.
Regarding `C=CCN1CCN(CCOC(=O)C(O)(c2ccccc2)c2ccccc2)CC1`, the activation is inactive: -3.55%.
As for `O=C(NCC1(N2CCCCC2)CCCCC1)c1cc(F)c(F)cc1Cl`, the activation was inactive: -8.49%.
For `COc1ccc(C(=O)NCC2(N(C)C)CCCCC2)cc1`, the activation is inactive: -3.99%.
Take `Cc1cc(C(=O)NCC2(N3CCCCC3)CCCCC2)ccc1[N+](=O)[O-]`: the activation is inactive: -5.79%.
The result for `CCN1CCCC(OC(=O)C2(O)c3ccccc3C=Cc3ccccc32)C1` (stereo unspecified) reads inactive: -9.73%; that for `O=C(NCC1(N2CCCCC2)CCCCC1)c1cccc(Br)c1`, inactive: 3.6%; that for `Cc1ccccc1C(=O)NCC1(N2CCCCC2)CCCCC1`, inactive: 0.34%.
`CN(C)C1CCCC1OC(=O)C(O)(c1ccccc1)c1ccccc1` (stereo unspecified): the activation is inactive: -1.33%.
The result for `CN(C)c1ccc(C(=O)NCC2(N(C)C)CCCCC2)cc1` reads inactive: 12.3%.
